Reference: PubChem BioAssay AID624288 (National Center for Advancing Translational Sciences (NCATS), 2012)
The entries are a selection whose mix differs from that of the whole data set. Inconclusive results are not listed. Activity calls are given as the source filed them. Calls come from the whole dose curve; cell line not stated here.

assay: qHTS for Antagonists of gsp, the Etiologic Mutation Responsible for Fibrous Dysplasia/McCune-Albright Syndrome: qHTS; settings: gsp-mutant cells, cAMP HTRF, 30 min; at 76.9 µM (top of the series) unless noted; note: nearly all actives have a fitted effect of over 65% in size
% is set by controls: 0 for no effect and ±100 for the full control effect.

| SMILES | activity change, negative = inhibition |
| --- | --- |
| O=[N+]([O-])c1ccc2c(c1)C=Nc1ccccc1O2 | inactive: -8.36% |
| CP(=S)(Nn1cnnc1)Oc1ccccc1 (stereo not drawn) | inactive: 8.21% |
| CCOC(=O)Nc1cccc([As](=O)(O)O)c1 | inactive: -0.86% |
| COc1ccccc1OP(C)(=O)Nc1ccccc1 (stereo not drawn) | inactive: 3.95% |
| Cc1cc(SC(NC=O)C(Cl)(Cl)Cl)ncn1 (stereo not drawn) | inactive: 2.77% |
| O=P(Nc1ccccn1)(c1cccc2ccccc12)c1cccc2ccccc12 | inactive: 4.16% |
| O=[N+]([O-])c1ccc(Nc2ccc(Oc3ccc([N+](=O)[O-])cc3[N+](=O)[O-])cc2)c([N+](=O)[O-])c1 | inactive: 1.89% |
| CP(=O)(Nc1ccccc1Br)Oc1ccccc1 (stereo not drawn) | inactive: 12.5% |
| CCOC(=O)Nc1ccc([As](=O)(O)O)c(O)c1 | inactive: 12.1% |
| CC1CCNP(=O)(N(CCCl)CCCl)O1 (stereo not drawn) | inactive: -5.26% |
| Cc1cc(SC(NC(=O)c2ccccc2)C(Cl)(Cl)Cl)nc(C(C)C)n1 (stereo not drawn) | inactive: -3.28% |
| CCCCOc1ccc(C(=O)NCC2(N3CCCCC3)CCCCC2)cc1OC | inactive: 11.7% |
| O=C(OC1CN2CCC1CC2)c1cccc([N+](=O)[O-])c1 (stereo not drawn) | inactive: -4.57% |
| CCOP(C)(=S)SCC(=O)NC(C)C(=O)O (stereo not drawn) | inactive: 3.71% |
| O=[N+]([O-])c1cc([N+](=O)[O-])c(O)c([N+](=O)[O-])c1.c1ccc(Oc2ccncc2)cc1 | inactive: -2.98% |
| CCOC(=O)c1ccc(NP(C)(=O)Oc2ccc(OC)cc2)cc1 (stereo not drawn) | inactive: -23.7% |
| CCOC(=O)c1ccc(NC(=O)C(C)(CCl)SC)cc1 (stereo not drawn) | inactive: 9.35% |
| CCC(C)N(CC(C)C)C(=S)SC(NC(C)=O)C(Cl)(Cl)Cl (stereo not drawn) | inactive: -3.4% |
| CP(=O)(Nc1ccccn1)Oc1ccc(Cl)cc1 (stereo not drawn) | inactive: 1.86% |
| CP(=O)(Oc1ccccc1)OC(c1ccccc1)C(F)(F)F (stereo not drawn) | inactive: 11.7% |

| SMILES | activity change, negative = inhibition |
| --- | --- |
| CP(=O)(Nc1ccc(SC(F)(F)F)cc1)Oc1ccc(Cl)cc1 (stereo not drawn) | inactive: 9.82% |
| Cc1cccc(C)c1OP(C)(=O)Nc1ccc(SC(F)(F)F)cc1 (stereo not drawn) | inactive: 15.6% |
| COP1(=S)c2c(C)nn(CCC#N)c2N=C(c2ccc(F)cc2)N1C (stereo not drawn) | inactive: 1.53% |
| Cc1cc(C)cc(OP(C)(=O)Nc2ccc(SC(F)(F)F)cc2)c1 (stereo not drawn) | inactive: 5.63% |
| O=C(Nc1ccncc1[N+](=O)[O-])c1ccc([N+](=O)[O-])cc1[N+](=O)[O-] | inactive: 0.197% |
| CCc1ccc(OP(C)(=O)N2CCN(c3ccc([N+](=O)[O-])cc3)CC2)cc1 (stereo not drawn) | inactive: -14.6% |
| CP(=O)(NC(=O)Nc1ccccc1)Oc1ccccc1 (stereo not drawn) | inactive: 5.74% |
| O=C(COc1ccccc1)OC1CN2CCC1CC2 (stereo not drawn) | inactive: 3.35% |
| O=[N+]([O-])c1cc([N+](=O)[O-])c(-c2cnn(-c3ccccc3)c2)c([N+](=O)[O-])c1 | inactive: 2.45% |
| COc1ccccc1CNC(=O)COC(=O)C(O)(c1ccccc1)c1ccccc1 | inactive: 2.46% |
| CN(C(=O)Cc1ccc(Cl)c(Cl)c1)[C@@H]1CCCC[C@H]1N1CCCC1 | inactive: 22.9% |
| CC(C)/C=N\N=C(\N)N[N+](=O)[O-] | inactive: -1.19% |
| CC1(CBr)Cn2c(nc3ccccc3c2=O)S1 (stereo not drawn) | inactive: 0.405% |
| Cc1nc2ccc3ccccc3c2s1.O=[N+]([O-])c1cc([N+](=O)[O-])c(O)c([N+](=O)[O-])c1 | inactive: -23.9% |
| CCOP(=O)(NC(=NC(C)c1ccccc1)NC(C)c1ccccc1)OCC (stereo not drawn) | inactive: -0.722% |
| O=[N+]([O-])c1cc([N+](=O)[O-])c(-n2nnc3ccccc32)c([N+](=O)[O-])c1 | inactive: 5.36% |
| CCC1=CC2Cc3nc4ccc(Cl)cc4c(N)c3C(C1)C2 (stereo not drawn) | inactive: -0.105% |
| O=P1(Nc2ccccn2)COc2ccccc2OC1 | inactive: 2.16% |
| CN(CCCl)Cc1cc(Cl)c(NC2=NCCN2)c(Cl)c1 | inactive: 32.5% |
| CCOP(=O)(Nc1ccc(C)cn1)OCC | inactive: -2.18% |

| SMILES | activity change, negative = inhibition |
| --- | --- |
| CC(C)(C)C(=O)NC(Sc1ncccn1)C(Cl)(Cl)Cl (stereo not drawn) | inactive: 0.109% |
| Clc1n[nH]nc1-c1nn[nH][15n]1 | inactive: 4.1% |
| O=P1(Nc2ncccn2)COc2ccccc2OC1 | inactive: 3.95% |
| CN1CCCCC1COC(=O)C1(O)c2ccccc2CCc2ccccc21 (stereo not drawn) | inactive: 10.7% |
| COc1ccccc1OP(C)(=O)Nc1c(C)cccc1C (stereo not drawn) | inactive: 11.8% |
| CP(=O)(Nc1ccc(SC(F)(F)F)cc1)Oc1ccccc1 (stereo not drawn) | inactive: 2.16% |
| Nc1cccc([As](=O)(O)c2ccccc2)c1 | inactive: 8.27% |
| CCCOc1ccc(NP(C)(=O)Oc2ccc(Cl)cc2)cc1 (stereo not drawn) | inactive: -4.07% |
| NS(=O)(=O)c1cccc(NC(=O)COC(=O)C(O)(c2ccccc2)c2ccccc2)c1 | inactive: -1.29% |
| O=P1(Nc2ccc(Br)cn2)COc2ccccc2OC1 | inactive: -2.25% |
| Cc1ccc(OCC(=O)OC2CN3CCC2CC3)cc1 (stereo not drawn) | inactive: 14.6% |
| O=[As](O)(c1cccs1)c1cccs1 | inactive: -2.63% |
| Cc1ccc(C(=O)OC2CN3CCC2CC3)cc1 (stereo not drawn) | inactive: 14.7% |
| CC1CCC(C(C)C)C(OP(=O)(Nc2ccccn2)c2ccccc2)C1 (stereo not drawn) | inactive: -9.17% |
| Cc1nn(-c2ccccc2)c2c1P(=O)(N1CCOCC1)N(C)C(c1ccccc1)=N2 (stereo not drawn) | inactive: 1.59% |
| COc1cc(C2NCCC3(OCCO3)C2(C)C)cc(OC)c1OC.O=[N+]([O-])c1cc([N+](=O)[O-])c(O)c([N+](=O)[O-])c1 (stereo not drawn) | inactive: -13.9% |
| O=[N+]([O-])c1cc([N+](=O)[O-])c(Nc2nnnn2CCO)c([N+](=O)[O-])c1 | inactive: -9.98% |
| CC1=C2N=C(C=C3N=C(C(C)=C4[N-][C@@](C)([C@@H]5N=C1[C@](C)(CCC(=O)NC[C@@H](C)OP(=O)([O-])O[C@H]1[C@@H](O)[C@@H](n6cnc7cc(C)c(C)cc76)O[C@@H]1CO)[C@H]5CC(N)=O)[C@@](C)(CC(N)=O)[C@@H]4CCC(N)=O)[C@@](C)(CC(N)=O)[C@@H]3CCC(N)=O)C(C)(C)[C@@H]2CCC(N)=O.[C-]#N.[Co+3] | inactive: 2.33% |
